Literature values as cited in patent US20150038545A1, “HYDROXYPHENYL PYRROLE COMPOUNDS CONTAINING AN HYDROXAMIC ACID AS HDAC INHIBITORS AND MEDICINAL APPLICATIONS THEREOF” (UNIVERSIDAD DEL PAÍS VASCO, priority 2011, published 2015).

Target: T1, HDAC6 (Homo sapiens, UniProt Q9UBN7)
T1 sequence (Q9UBN7 1-1215): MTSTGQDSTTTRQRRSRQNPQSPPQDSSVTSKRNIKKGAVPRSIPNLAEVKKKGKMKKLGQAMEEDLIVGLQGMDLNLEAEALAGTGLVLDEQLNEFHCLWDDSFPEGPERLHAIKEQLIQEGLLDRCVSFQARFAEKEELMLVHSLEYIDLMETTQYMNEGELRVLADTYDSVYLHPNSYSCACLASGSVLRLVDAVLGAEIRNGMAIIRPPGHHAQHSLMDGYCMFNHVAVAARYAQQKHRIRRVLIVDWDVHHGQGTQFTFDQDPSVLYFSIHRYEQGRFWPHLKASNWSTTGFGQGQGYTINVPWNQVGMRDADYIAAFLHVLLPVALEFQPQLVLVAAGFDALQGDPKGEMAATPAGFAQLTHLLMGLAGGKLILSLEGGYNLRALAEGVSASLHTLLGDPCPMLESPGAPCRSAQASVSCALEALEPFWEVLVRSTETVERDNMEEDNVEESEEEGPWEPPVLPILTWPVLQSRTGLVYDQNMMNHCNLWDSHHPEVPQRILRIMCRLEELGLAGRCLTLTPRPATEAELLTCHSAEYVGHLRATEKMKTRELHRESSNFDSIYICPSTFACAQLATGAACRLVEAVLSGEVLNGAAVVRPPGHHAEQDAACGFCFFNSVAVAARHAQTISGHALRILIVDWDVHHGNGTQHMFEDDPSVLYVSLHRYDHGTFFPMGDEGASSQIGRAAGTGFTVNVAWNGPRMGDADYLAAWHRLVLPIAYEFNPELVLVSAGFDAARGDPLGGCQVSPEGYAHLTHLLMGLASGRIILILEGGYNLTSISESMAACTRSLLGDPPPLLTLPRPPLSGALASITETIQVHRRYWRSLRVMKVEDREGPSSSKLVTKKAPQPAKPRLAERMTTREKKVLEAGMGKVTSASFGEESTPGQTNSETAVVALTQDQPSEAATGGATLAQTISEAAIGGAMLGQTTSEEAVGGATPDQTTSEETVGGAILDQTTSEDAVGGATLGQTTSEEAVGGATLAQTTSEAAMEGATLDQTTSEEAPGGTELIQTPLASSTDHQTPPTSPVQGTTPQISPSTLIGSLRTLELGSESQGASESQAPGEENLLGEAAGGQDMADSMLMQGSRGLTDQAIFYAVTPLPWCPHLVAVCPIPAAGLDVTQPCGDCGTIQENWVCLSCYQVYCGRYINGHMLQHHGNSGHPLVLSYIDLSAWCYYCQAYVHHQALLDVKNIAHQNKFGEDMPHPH
Settings: cited from earlier work

## CN1CCc2c(c3ccccc3n2Cc2ccc(C(=O)NO)cc2)C1 [Tubastatin]
HDAC6 vs HDAC-1
  selectivity over HDAC-1: 1000 fold
HDAC6 vs HDAC-8
  selectivity over HDAC-8: 57 fold
